Test results published in patent publication US10335503B2, “Compound that specifically binds to AMPA receptor” (Public University Corporation Yokohama City University, priority 2015, dated 2019).

Sequences of proteins named here, by UniProt entry; tags and fusion partners are left off.
UniProt P21452, whole entry: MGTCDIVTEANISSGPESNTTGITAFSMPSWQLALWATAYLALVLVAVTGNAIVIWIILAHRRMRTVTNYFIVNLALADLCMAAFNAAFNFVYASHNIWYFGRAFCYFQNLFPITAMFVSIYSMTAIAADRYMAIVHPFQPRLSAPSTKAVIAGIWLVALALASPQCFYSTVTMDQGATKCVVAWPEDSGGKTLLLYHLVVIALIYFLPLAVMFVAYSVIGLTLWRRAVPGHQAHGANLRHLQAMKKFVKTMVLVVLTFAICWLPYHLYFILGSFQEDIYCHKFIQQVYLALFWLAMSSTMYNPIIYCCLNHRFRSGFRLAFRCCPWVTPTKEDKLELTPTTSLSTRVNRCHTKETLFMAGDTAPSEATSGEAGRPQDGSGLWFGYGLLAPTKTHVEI
UniProt P35368, whole entry: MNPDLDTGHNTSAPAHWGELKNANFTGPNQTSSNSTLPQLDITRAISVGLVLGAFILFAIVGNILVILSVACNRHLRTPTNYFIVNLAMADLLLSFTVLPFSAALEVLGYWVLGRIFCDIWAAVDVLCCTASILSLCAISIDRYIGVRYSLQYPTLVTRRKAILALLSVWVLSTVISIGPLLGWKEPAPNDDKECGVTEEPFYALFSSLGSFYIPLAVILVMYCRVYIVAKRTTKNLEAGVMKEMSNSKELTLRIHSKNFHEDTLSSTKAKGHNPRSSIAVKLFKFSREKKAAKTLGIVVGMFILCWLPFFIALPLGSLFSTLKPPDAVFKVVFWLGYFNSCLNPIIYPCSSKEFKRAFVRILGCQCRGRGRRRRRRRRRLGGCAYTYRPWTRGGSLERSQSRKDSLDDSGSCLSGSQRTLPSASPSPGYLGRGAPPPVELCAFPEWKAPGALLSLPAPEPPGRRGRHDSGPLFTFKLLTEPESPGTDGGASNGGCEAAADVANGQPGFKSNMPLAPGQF

Experiments:
Details in all cases: Positive substance, concentration not given
Neurokinin NK2 = Neurokinin NK2 (Homo sapiens, UniProt P21452); test: Receptor binding panel: Neurokinin NK2
α1A-Adrenergic = molecular target: T1, α1A-Adrenergic (Homo sapiens, UniProt P35348); test: Receptor binding panel: α1A-Adrenergic
T1 sequence (P35348 1-466): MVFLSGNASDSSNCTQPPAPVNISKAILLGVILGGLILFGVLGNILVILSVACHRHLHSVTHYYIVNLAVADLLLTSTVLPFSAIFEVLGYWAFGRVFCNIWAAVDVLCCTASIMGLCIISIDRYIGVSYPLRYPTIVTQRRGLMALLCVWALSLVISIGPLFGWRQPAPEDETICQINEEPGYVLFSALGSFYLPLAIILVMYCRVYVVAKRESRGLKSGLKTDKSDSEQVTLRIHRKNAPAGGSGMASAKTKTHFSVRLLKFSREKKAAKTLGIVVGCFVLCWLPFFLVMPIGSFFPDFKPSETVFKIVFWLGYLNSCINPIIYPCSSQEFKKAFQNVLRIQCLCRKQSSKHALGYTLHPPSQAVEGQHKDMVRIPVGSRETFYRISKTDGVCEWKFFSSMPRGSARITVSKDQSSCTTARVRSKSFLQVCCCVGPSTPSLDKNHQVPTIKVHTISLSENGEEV

α1B-Adrenergic = α1B-Adrenergic (Homo sapiens, UniProt P35368); test: Receptor binding panel: α1B-Adrenergic

Inhibition (%) (Neurokinin NK2)	Inhibition (%) (α1A-Adrenergic)	Inhibition (%) (α1B-Adrenergic)	Compound
100.00%	–	–	Neurokinin A [reference compound]
–	100.00%	100.00%	COc1cc2nc(N3CCN(C(=O)c4ccco4)CC3)nc(N)c2cc1OC [Prazosin, reference compound]
